In the experiment the test system is EGFRt^+ T cells (^51Cr-labeled Line A cells). The experiment in a line: Antibody dependent cell mediated cytotoxicity (ADCC) by chromium release, human PBMC effectors. In kind it is cell-based. The note with it: Line A targets pre-incubated with antibody, compared with CD20-specific mAb Rituxan. On the procedure: For T cell engraftment, six- to ten-week old NOD/Scid IL-2RγC^null mice are injected i.v. on day 0 with 10^7 T cells (Line C). 2×10^7 irradiated (8000 rads) NS0-GFP:IMPDH2-IL15(IL2ss)_pcDNA3.1(+) (cJ02096) cells are administered i.p. 3 times a week starting on day 0 to provide a systemic supply of human IL-15 in vivo. Bone marrow was harvested from euthanized animals and analyzed by flow cytometry.

Take cetuximab: the “ADCC activity (chromium-release)” value is “significantly mediate chromium-release”.

The record behind these values is patent US12421294B2, “Truncated epiderimal growth factor receptor (EGFRt) for transduced t cell selection” (City of Hope, priority 2009, dated 2025).
